According to patent US7495030B2, “(5-(2-hydroxy-4-chlorobenzoyl) aminovaleric acid and salts thereof and compositions containing the same for delivering active agents” (Emisphere Technologies, Inc., priority 2000, dated 2009):

Assay: Insulin oral delivery in rats, serum human insulin by ELISA and serum glucose
Conditions: oral dosing with human insulin alone (no delivery agent); previous experiments
Protocol: Oral dosing (PO) compositions of delivery agent compound and human zinc insulin (minimum 26 IU/mg available from Calbiochem—Novabiochem Corp, La Jolla, Calif.) were prepared in deionized water. […] The solution was vortexed, then heated (about 37° C.) and sonicated. The pH was adjusted to about 7 to 8.5 with NaOH or HCl.
About 1.25 mg insulin from an insulin stock solution (15 mg/ml made from 0.5409 g insulin and […] deionized water, adjusting with HCl and NaOH to pH 8.15 and to obtain a clear solution using […]) was added to the solution and mixed by inverting.
The typical dosing and sampling protocols were as follows. […] A dosing group of five animals was administered one of the dosing solutions. […] The syringe was filled with dosing solution by drawing the solution through the catheter, which was then wiped dry. The catheter was placed down the esophagus leaving 1 cm of tubing past the incisors. Solution was administered by pressing the syringe plunger.
Serum insulin levels were determined with an Insulin ELISA Test Kit (Kit # DSL-10-1600 from Diagnostic Systems Laboratories, Inc., Webster, Tex.), modifying the standard protocol in order to optimize the sensitivity and linear range of the standard curve for the volumes and concentrations of the samples used in the present protocol. […]

**Q.** Which “Serum human insulin levels” value does the source give for human insulin here?
**A.** no measurable levels
